Structures are written as SMILES. This is a selection; strong and weak results do not stand in their true shares. Calls of active or inactive are those of the source. Rule as the data show it: active = activation mostly above about 9.5% (no sharp cut-off); inactive = mostly below about 7.6%.

Sequences of proteins named here, by UniProt entry; tags and fusion partners are left off.
UniProt P47898, whole entry, looked up: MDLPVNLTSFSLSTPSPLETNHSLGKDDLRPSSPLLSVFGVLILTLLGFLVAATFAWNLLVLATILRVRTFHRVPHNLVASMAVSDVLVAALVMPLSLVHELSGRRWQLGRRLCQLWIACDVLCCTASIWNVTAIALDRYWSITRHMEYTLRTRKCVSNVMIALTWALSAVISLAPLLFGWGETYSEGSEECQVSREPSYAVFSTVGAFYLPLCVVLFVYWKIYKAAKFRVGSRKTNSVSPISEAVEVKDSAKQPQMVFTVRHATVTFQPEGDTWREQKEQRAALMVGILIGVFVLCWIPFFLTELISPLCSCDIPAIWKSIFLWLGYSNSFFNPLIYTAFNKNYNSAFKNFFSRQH

The target in the assay is 5-hydroxytryptamine receptor 5A (Homo sapiens) (UniProt P47898). Nature of the assay: HTR5A agonists in luminescence cell assay, primary screen, counter-screen for OPRM1-OPRD1 heterodimer agonist project, full-deck HTS (AID 504692).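 Also: 0% = cells with vehicle only and 100% = reference agonist.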 The note with it: cell-based, at 9.3 µM, hits give high values. A general note: Counterscreens check selectivity or assay interference.
Take `Cc1ccc(-c2csc(NCCn3c(C)nc4cc(C(F)(F)F)ccc43)n2)cc1`: the activation is inactive: 0.13%. Next, `O=C(CCNC(=O)N1CCn2c1nc1ccccc12)NCc1ccc(F)cc1`: inactive: -0.31%; `COc1cc(NC(=O)Cn2cnc3c(OCc4ccccc4)ncnc32)cc(OC)c1OC`: inactive: 2.61%; `CCN(CC)C(=S)SC(NC=O)C(Cl)(Cl)Cl` (stereo not given): inactive: -0.85%.

As to `C=C(C)Cn1c(=O)c2c(nc3n2CCN3c2cccc(Cl)c2C)n(C)c1=O`, the activation is inactive: 1.46%. Next, `O=C(OC1CN2CCC1CC2)c1cccc2[nH]cnc12` (stereo not given): inactive: -0.81%; `O=C(Nc1nc2ccccc2n1CCN1CCOCC1)c1cn(-c2ccccc2)nc1-c1ccccc1`: inactive: -4.68%; `COC(=O)[C@H](CC(C)C)NC(=O)Cn1cnc2c(SC)nc(N)nc21`: inactive: 0.01%.

On to `O=C(Cn1c2[n+](c3ccc(C(F)(F)F)cc31)CCCCC2)Nc1c(F)cccc1F`, for which the activation was inactive: 0.61%. As for `Cn1c(=O)c2c(ncn2CC(=O)Nc2nc(-c3ccccc3Cl)cs2)n(C)c1=O`, the activation was inactive: 1.31%. Next, `O=C(Cn1cnc2c(NCc3ccccc3)ncnc21)NCCCc1ccccc1`: inactive: 0.34%; `O=C(Cn1c(-c2ccccn2)nc2ccccc21)NCCN1CCOCC1`: inactive: 0.43%; `O=[N+]([O-])c1cc([N+](=O)[O-])c(-c2ccn[nH]2)s1`: inactive: 0.63%. Next, `COc1ccc(CCNC(=O)[C@@H](NC(=O)N2CCn3c2nc2ccccc23)C(C)C)cc1OC`: inactive: 3.18%; `CC1c2nc3ccccc3n2C(CC(=O)NCCCN2CCOCC2)C(=O)N1Cc1ccccc1` (stereo not given): inactive: 1.3%; `CSc1nc2ccccc2n1CC(=O)Nc1c(C)cccc1C`: inactive: -0.66%. On to `CN1CCN(c2nc3c(c(=O)[nH]c(=O)n3C)n2CC(N)=O)CC1`, for which the activation is inactive: -1.64%. Next, `Cc1n[nH]c(C)c1S(=O)(=O)N1CCC(C(=O)N2CCn3c2nc2ccccc23)CC1`: inactive: -15.7%; `Cc1ccc(SCc2nc3ccccc3n2CC(=O)Nc2c(C)cccc2C)cc1`: inactive: -0.93%. Next, `C[As](=O)(O)c1cccc(C(=O)O)c1`: inactive: 4.64%. Consider `O=[As](O)(c1ccc(O)cc1)c1ccccc1O`, for which the activation was inactive: 1.15%. Regarding `COc1ccc(NC(=O)N2CCn3c2nc2ccccc23)cc1`, the activation is inactive: -0.34%. Next, `Cc1ccc(S(=O)(=O)Nc2ccc3c(c2)nc2n3CCN(Cc3ccccc3)C2)cc1`: inactive: -1.78%; `O=[N+]([O-])c1ccc(-c2cc([N+](=O)[O-])c(O)c([N+](=O)[O-])c2)cc1`: inactive: -1.43%; `Cn1c(=O)c2c(ncn2CC(=O)N/N=C/C(Br)=C/c2ccccc2)n(C)c1=O`: inactive: -2.66%.

The values are drawn from PubChem BioAssay AID504692 (The Scripps Research Institute Molecular Screening Center, 2011).
